Values joined by “and” are separate entries in the source; they are usually repeats but may differ in a detail not shown here. Equal entries are not always repeated.
Legend:
[1] = target: T1, Transient receptor potential cation channel subfamily V member 1 (Homo sapiens, UniProt Q8NER1); assay: Inhibition of human transient receptor potential vanilloid 1 receptor (n=3)
How it was run: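 FLIPR Ca2+ influx in Fluo-3-loaded HEK293 cells stably expressing human or rat TRPV1. Compound was added at 0.3 nM–30 µM final, in half-log steps, for 3 min before capsaicin. Signal was the smaller of peak and end fluorescence after basal subtraction. IC50 came from a four-parameter logistic fit.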

By UniProt entry, the sequences of proteins in these tests, tags left out.
UniProt Q8NER1, whole entry: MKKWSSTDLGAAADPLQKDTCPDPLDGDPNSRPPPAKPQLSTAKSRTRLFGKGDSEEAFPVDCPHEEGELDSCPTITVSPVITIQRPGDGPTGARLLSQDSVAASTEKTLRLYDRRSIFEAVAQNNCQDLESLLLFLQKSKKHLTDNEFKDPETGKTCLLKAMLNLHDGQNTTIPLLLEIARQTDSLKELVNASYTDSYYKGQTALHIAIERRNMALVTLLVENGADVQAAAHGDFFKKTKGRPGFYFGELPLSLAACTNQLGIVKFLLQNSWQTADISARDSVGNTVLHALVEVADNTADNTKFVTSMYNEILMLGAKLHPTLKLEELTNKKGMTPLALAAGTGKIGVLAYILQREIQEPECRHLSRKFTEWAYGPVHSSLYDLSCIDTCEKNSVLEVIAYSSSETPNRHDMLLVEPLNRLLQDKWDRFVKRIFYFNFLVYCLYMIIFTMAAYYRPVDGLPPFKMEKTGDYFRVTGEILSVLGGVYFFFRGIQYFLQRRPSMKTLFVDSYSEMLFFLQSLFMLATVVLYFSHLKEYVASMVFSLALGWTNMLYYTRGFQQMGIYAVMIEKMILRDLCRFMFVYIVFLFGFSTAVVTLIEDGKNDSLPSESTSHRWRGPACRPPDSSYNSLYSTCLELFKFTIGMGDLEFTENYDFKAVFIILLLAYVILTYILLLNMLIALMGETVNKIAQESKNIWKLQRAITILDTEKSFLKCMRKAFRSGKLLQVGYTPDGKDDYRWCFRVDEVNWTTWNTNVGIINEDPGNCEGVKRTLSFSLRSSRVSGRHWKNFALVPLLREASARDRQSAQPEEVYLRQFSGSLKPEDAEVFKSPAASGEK

[2] = target: T1, Transient receptor potential cation channel subfamily V member 1; assay: In vitro inhibition of PMA-activated human TRPV1 receptor in [Ca2+] influx assay
How it was run: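 Human TRPV1-HEK293 cells were loaded with Fluo-3 and preincubated with compound for 3 min. They were then stimulated with 300 nM PMA, and fluorescence was monitored for 5–10 min on FLIPR. IC50 came from a four-parameter logistic fit.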

[3] = target: T1, Transient receptor potential cation channel subfamily V member 1; assay: Inhibition of human transient receptor potential vanilloid 1 receptor (n=13)
[4] = target: T1, Transient receptor potential cation channel subfamily V member 1; assay: Displacement of [3H]resiniferatoxin from human Transient receptor potential vanilloid 1 receptor; (n=2)
[5] = target: T1, Transient receptor potential cation channel subfamily V member 1; assay: In vitro inhibition of anandamide activated human TRPV1 receptor in [Ca2+] influx assay

Structure (SMILES) | IC50 [1] | IC50 [2] | IC50 [3] | Ki [4] | IC50 [5]
O=C(Nc1ccc(C(F)(F)F)cc1)NC1CCN(c2ncccc2C(F)(F)F)CC1 | 5030 nM | – | – | – | –
O=C(Nc1ccc(C(F)(F)F)cc1)N1CCN(c2ncccc2C(F)(F)F)CC1 | – | 3 nM | 57 nM | 38 nM | 3 nM and 5 nM and 4 nM
